The target of test [1] is FGFR1 (Homo sapiens, UniProt P11362). Put plainly: Z′-LYTE Detection Kinase Assay, in vitro enzymatic activity. The following applies: read-out: FGFR1 IC50 (Z′-LYTE Detection); 0.6 nM FGFR1, 2 uM Tyr4 peptide, 10 uM ATP, 60 min 23° C.; tested form: 2HCl. The protocol: To measure enzyme activity by Z′-LYTE™ Detection Kinase Assay, and to evaluate the inhibitory effect of the compounds on FGFR1 using IC50 value of the compounds as an indicator. […]
Reaction Buffer: 50 mM Hepes (pH 7.5), 10 mM MgCl2, 1 mM EGTA, 0.01% Brij-35, 1 mM DTT, 2 mM MnCl2 0.6 nM FGFR1, 2 uM Tyr4 peptide and 10 uM ATP in reaction buffer (50 mM Hepes, pH 7.5, 10 mM MgCl2, 0.01% BRIJ-35, 1 mM EGTA, 4 mM MnCl2, 2 mM DTT). a. Diluting the compounds with DMSO to 10 mM, 3-fold dilution, 11 gradients, duplicate wells. b. Diluting the compound by 1:25 into middle plate at Bravo Automatic Liquid Station, then transferring 2.5 ul to the reaction plate to ensure the final DMSO concentration to be 1%. c. Transferring 5 ul of enzyme/substrate buffer into each well d. Using Multidrop Liquid Workstation to sequentially add ATP solution to each well e. Centrifuging at 1000 rpm for 1 minute f. Placing the reaction plate in an incubator at 23° C. to react for 60 min. a. Preparing a 1:128 mixture of Development Regent B and Development Buffer b. Adding 5 ul to each well and centrifuging at 1000 rpm for 1 minute c. Placing the reaction plate in a thermostat (23° C.) after centrifuging for 90 minutes, removing and reading on Envision (Perkin Elmer) Plate Reader
D. Analyzing Data: Analyzing Data Using XLFIT (IDBS) and Calculating IC50 Values for the Compounds.

Chains of the proteins cited; added tags and fusions are not shown. Residues count along the entry.
UniProt P11362, 22-822 limits assumed: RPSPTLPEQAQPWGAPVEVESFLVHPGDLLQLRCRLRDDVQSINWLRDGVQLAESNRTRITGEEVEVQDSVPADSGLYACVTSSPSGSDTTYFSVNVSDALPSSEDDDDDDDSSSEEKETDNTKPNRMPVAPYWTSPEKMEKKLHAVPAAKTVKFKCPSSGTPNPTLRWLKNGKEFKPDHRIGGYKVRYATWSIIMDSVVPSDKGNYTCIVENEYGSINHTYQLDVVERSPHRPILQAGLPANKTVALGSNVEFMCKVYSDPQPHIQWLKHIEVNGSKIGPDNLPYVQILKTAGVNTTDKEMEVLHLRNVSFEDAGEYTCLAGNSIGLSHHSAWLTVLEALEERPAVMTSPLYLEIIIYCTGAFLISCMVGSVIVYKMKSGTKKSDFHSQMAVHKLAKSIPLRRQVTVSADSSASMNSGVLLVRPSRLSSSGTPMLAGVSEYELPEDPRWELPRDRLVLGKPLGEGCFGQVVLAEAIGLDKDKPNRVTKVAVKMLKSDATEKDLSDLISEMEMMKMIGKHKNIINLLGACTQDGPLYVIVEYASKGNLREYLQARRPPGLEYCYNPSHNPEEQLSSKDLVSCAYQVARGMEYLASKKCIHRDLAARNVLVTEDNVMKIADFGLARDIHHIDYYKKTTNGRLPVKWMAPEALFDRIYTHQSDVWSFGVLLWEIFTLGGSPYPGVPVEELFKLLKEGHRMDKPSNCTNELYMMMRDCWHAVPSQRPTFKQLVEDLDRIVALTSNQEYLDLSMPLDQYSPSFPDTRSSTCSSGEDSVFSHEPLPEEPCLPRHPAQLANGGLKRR

Test [2] has as its system SNU-16 cell. Put plainly: CellTiter-Glo Luminescent Cell Viability Assay. Conditions: read-out: SNU-16 IC50 (CellTiter-Glo Detection); SNU-16 cells, 3 days; tested form: 2HCl. The protocol:
To detect the change of intracellular ATP by CellTiter-Glo® Luminescent Cell Viability Assay, and to evaluate the inhibitory effect of the compounds on in vitro cell SNU-16 using IC50 value of the compounds as an indicator.
Cell line: SNU-16 cell strain d. Diluting SNU-16 with medium, adding the diluted cells to the 384 plate (Greiner. 781090) (50 μL/well, SNU-16 cell 750 cells/well) with multi-channel pipette. Placing the cell plate in a 37° C., 5% CO2 incubator overnight. […]
g. Diluting the compound with DMSO to 10 mM, 3-fold dilution, 11 gradients, duplicate wells. h. Transferring 2.4 ul of the compound to the middle plate added with 47.6 ul of cell culture media at Bravo Automatic Liquid Station. Then transferring 5 ul to the cell culture plate (55 ul) to ensure the final DMSO concentration to be 0.4%. […]
i. Placing the cell culture plate in 5% CO2 incubator at 37° C. to continue cultivating for 3 days. d. Balancing Cell Titer Glo Reagent to room temperature e. Taking 30 ul of Cell Titer Glo Reagent in a 1:2 ratio into each well and gently mixing for 2 minutes f. Placing the cell culture plate in an incubator (23° C.) for 10 minutes, taking out and centrifuging at 1000 rpm for 1 minute g. Reading on Envision (Perkin Elmer) Plate Reader.
H. Analyzing Data: Analyzing the Data Using XLFIT (IDBS) and Calculating IC50 Values for the Compounds.
Background: Cellular ATP, detected with luciferase, serves as a proxy for viable cell number.

Each structure is given as a SMILES string.

As for `C[C@@H](Oc1ccc2[nH]nc(/C=C(\F)c3ccc(O[C@@H]4CCOC4)nc3)c2c1)c1c(Cl)cncc1Cl`, the 50% inhibitory concentration (IC50) was 50 to 1000 nM in test [1] and below 10 nM in test [2].

The IC50 is the concentration that inhibits the measured activity by half.

(Values after patent US10519133B2, “Vinyl compounds as FGFR and VEGFR inhibitors” (MEDSHINE DISCOVERY INC., priority 2015, dated 2019).)
